The results in this text go back to ChEMBL document CHEMBL1124484, “Effects of 8-phenyl and 8-cycloalkyl substituents on the activity of mono-, di-, and trisubstituted alkylxanthines with substitution at the 1-, 3-, and 7-positions” (J Med Chem, 1989).

Amino acid sequences for entries named in this document (tags omitted).
UniProt P25099, whole entry: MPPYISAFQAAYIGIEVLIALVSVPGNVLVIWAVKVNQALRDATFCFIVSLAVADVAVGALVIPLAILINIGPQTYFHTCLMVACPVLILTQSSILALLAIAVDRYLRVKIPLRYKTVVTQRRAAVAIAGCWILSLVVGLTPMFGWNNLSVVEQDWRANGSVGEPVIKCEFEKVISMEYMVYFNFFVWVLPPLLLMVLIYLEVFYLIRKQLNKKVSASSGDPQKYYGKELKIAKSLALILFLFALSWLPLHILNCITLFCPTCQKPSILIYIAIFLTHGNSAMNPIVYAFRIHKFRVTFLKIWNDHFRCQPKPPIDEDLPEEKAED

What is called Ki is a measure of affinity in units of concentration, obtained from inhibition or displacement. High values mean a looser hold on the target, low ones a stronger hold on the target.

For the assay, the target named is Adenosine receptor A1 (Rattus norvegicus, UniProt P25099). As to the kind of experiment: Inhibition of 1 nM [3H]- N6-(phenylisopropyl) adenosine binding to Adenosine A1 receptor in rat cerebral cortical membranes. Type of assay: cell membranes, Membrane.

Regarding `CCCn1c(=O)c2[nH]c(-c3ccccc3)nc2n(CCC)c1=O`, affinity was put at a Ki of 10 nM.
